In article PMC12079475, “Identification, validation, and characterization of approved and investigational drugs interfering with the SARS‐CoV‐2 endoribonuclease Nsp15” (Protein Science : A Publication of the Protein Society, 2025):
Counter-ions that a name gives are not always drawn. Like-named read-outs stand apart in the source and are kept apart here.

Assays:
[1] = biological target: T1, SARS‐CoV‐2 Nsp15 (Severe acute respiratory syndrome coronavirus 2, UniProt P0DTD1); assay: biochemical; conditions: read-out: Inhibition % +L-Cys 10 µM
[2] = biological target: T1, SARS‐CoV‐2 Nsp15; assay: biochemical
[3] = read-out: HC inhibition % +DTT 10 µM
[4] = read-out: PS Inhibition % 10 µM
[5] = read-out: PS inhibition % 10 μM (single point measurement)

SMILES: COc1cccc2c1C(=O)c1c(O)c3c(c(O)c1C2=O)C[C@@](O)(C(=O)CO)C[C@@H]3O[C@H]1C[C@H](N)[C@@H](O)[C@H](C)O1 [Epirubicin hydrochloride]
- inhibition at 10 µM [1]: 81.7%
- inhibition at 10 µM [2, 3]: 73.2%
- inhibition at 10 µM [2, 4]: 70.9%
- inhibition at 10 µM [2, 5]: 70.9%

SMILES: COc1cccc2c1C(=O)c1c(O)c3c(c(O)c1C2=O)C[C@@](O)(C(=O)CO)C[C@@H]3O[C@H]1C[C@H](N)[C@H](O)[C@H](C)O1 [Doxorubicin]
- inhibition at 10 µM [1]: 74.5%
- inhibition at 10 µM [2, 3]: 65.8%
- inhibition at 10 µM [2, 4]: 80.2%
- inhibition at 10 µM [2, 5]: 80.2%
